Measured values published in patent US11957711B2 (priority 2021, dated 2024).

Experiment: NOAEL (no-observed-adverse-effect-level) for inhaled gas

Dichlorine monoxide
Values in mg/liters for gaseous mixtures for 8 hours (8 hours, (0.61×86.9054)/24200): 0.0028 ppm
maximum value (NOAEL-based) in 24 hours (24 hours, (0.61×8)/24): 0.20 ppm
NOAEL (Summary Toxicology Table): 0.0022 Mg/Liters in 8 hours
maximum value that must be maintained to dose the product (NOAEL-based) (inhaling gas mixture for 8 hours without adverse effects, 1.23×0.5 from chlorine gas NOAEL): 0.61 ppm
